Assay results taken from ChEMBL document CHEMBL3124938, “Synthesis and biological evaluation of positron emission tomography radiotracers targeting serotonin 4 receptors in brain: [18F]MNI-698 and [18F]MNI-699” (Bioorg Med Chem Lett, 2013).

Sequences of proteins named here, by UniProt entry; tags and fusion partners are left off.
UniProt Q6Q253, whole entry: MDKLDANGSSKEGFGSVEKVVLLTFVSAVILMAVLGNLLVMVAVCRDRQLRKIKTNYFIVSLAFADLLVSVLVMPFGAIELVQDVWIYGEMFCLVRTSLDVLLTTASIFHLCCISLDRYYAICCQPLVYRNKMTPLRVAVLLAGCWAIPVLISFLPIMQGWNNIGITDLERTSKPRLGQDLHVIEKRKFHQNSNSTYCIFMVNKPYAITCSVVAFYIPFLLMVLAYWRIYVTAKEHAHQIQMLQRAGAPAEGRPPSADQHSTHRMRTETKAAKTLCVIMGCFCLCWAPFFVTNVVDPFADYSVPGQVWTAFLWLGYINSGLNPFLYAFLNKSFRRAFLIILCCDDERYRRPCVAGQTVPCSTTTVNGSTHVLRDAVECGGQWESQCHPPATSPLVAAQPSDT

Target: Serotonin 4 (5-HT4) receptor (Sus scrofa, UniProt Q6Q253)
Assay: Binding affinity to 5HT4 receptor in pig striatal membranes
Format: cell membranes, Striatum, Membrane

## CCCCN1CCC(COC(=O)c2cc(I)c(N)c3c2OCCO3)CC1
  Kd: 0.08 nM
